Experimental data: ChEMBL document CHEMBL1135455, “3-Aminopyrrolidinone farnesyltransferase inhibitors: design of macrocyclic compounds with improved pharmacokinetics and excellent cell potency” (J Med Chem, 2002)

The chains behind the UniProt entries cited, without tags or fusion partners. Where a name states a change or a piece, a line headed by the entry shows the natural chain unless it says otherwise.
UniProt P53609, whole entry, looked up: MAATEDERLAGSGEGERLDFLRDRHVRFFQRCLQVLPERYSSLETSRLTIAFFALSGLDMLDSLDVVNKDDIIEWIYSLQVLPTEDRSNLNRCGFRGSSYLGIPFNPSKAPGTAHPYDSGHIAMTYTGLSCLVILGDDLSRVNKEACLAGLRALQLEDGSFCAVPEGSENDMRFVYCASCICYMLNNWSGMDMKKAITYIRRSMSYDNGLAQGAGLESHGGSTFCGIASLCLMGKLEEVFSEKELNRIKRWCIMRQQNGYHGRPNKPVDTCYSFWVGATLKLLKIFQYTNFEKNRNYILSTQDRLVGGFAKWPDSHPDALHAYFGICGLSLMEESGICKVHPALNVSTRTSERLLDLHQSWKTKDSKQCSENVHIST
UniProt Q12809: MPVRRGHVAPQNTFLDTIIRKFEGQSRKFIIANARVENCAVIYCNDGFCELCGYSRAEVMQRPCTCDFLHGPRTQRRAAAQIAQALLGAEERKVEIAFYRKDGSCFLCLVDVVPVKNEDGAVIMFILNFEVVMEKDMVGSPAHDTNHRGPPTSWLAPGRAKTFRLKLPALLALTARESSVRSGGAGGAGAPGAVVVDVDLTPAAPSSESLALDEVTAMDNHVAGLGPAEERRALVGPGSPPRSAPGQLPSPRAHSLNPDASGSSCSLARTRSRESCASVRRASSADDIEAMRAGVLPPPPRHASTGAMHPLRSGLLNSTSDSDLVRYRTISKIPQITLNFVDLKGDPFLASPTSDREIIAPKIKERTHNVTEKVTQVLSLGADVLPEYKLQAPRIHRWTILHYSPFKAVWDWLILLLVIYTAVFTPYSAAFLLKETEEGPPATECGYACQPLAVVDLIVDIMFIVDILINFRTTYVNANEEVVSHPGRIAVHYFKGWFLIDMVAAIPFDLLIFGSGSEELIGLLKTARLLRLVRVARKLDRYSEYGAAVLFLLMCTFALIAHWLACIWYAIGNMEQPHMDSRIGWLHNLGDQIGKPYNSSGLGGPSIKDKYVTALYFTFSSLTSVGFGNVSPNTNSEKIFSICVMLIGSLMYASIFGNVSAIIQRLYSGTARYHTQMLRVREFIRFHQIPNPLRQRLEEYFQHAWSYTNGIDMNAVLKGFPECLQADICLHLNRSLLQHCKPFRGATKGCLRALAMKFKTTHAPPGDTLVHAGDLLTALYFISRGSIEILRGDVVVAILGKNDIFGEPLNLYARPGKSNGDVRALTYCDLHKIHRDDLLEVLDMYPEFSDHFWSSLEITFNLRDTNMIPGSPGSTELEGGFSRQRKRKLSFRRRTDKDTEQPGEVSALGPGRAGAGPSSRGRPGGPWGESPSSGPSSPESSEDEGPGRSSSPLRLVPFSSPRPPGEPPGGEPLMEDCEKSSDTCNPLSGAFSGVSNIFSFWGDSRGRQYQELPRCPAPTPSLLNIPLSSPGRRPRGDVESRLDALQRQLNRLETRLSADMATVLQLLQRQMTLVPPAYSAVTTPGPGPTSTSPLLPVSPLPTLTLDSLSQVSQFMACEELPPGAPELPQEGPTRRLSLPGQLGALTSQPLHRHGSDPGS

Molecular target: Geranylgeranyl transferase type I (Homo sapiens, UniProt P49354+P53609)
Assay: Inhibitory activity against geranylgeranyl transferase
Assay type: protein-complex assay
Details: not given

Going from N#Cc1ccc2cc1Oc1ccc3cccc(c3c1)N1CC[C@@H](NCc3cncn3C2)C1=O to N#Cc1ccc2cc1Oc1ccc3cccc(c3c1)N1CC[C@H](NCc3cncn3C2)C1=O, the IC50 falls from 3.9 µM to 0.65 µM (6-fold). The second is the more potent here.

N#Cc1ccc2cc1Oc1cccc(c1)CN1CC[C@H](NCc3cncn3C2)C1=O and N#Cc1ccc2cc1Oc1cccc(c1)CN1CC[C@@H](NCc3cncn3C2)C1=O cannot be ordered by IC50: over 20 µM for the first, over 20 µM for the second.

Molecular target: Voltage-gated inwardly rectifying potassium channel KCNH2 (Homo sapiens, UniProt Q12809)
Assay: not given
Details: IP

In order of falling IC50:
1. N#Cc1ccc2cc1Oc1ccc3c(c1)[C@@H](CCC3)N1CC[C@H](NCc3cncn3C2)C1=O  12 µM
2. N#Cc1ccc2cc1Oc1ccc3c(c1)[C@@H](CCC3)N1CC[C@@H](NCc3cncn3C2)C1=O [(1R,5R)-30-OXO-19-OXA-2,6,10,12-TETRAAZAHEXACYCLO[18.6.2.1^{2,5}.1^{14,18}.0^{8,12}.0^{23,27}]TRIACONTA-8,10,14(29),15,17,20(28),21,23(27)-OCTAENE-17-CARBONITRILE (STRUCTURAL MIX)]  7 µM
3. N#Cc1ccc2cc1Oc1ccc3c(c1)[C@H](CC3)N1CC[C@@H](NCc3cncn3C2)C1=O  4.7 µM
4. N#Cc1ccc2cc1Oc1ccc3c(c1)[C@@H](CC3)N1CC[C@H](NCc3cncn3C2)C1=O  4.3 µM
5. N#Cc1ccc2cc1Oc1ccc3c(c1)[C@H](CC3)N1CC[C@H](NCc3cncn3C2)C1=O  2.7 µM
6. N#Cc1ccc2cc1Oc1ccc3c(c1)[C@@H](CC3)N1CC[C@@H](NCc3cncn3C2)C1=O  0.08 µM

Molecular target: Protein farnesyltransferase (Homo sapiens, UniProt P49354+P49356)
Assay: Inhibition of human farnesyltransferase in an enzyme assay.
Details: not given

N#Cc1ccc2cc1Oc1cccc(c1)CN1CC[C@@H](NCc3cncn3C2)C1=O showed an IC50 of 0.0035 µM.
